US20050002552A1, “Automated in vitro cellular imaging assays for micronuclei and other target objects” (Pfizer Inc, priority 2003, published 2005)

Test system: Chinese hamster ovary cells

CO[C@@]12[C@H](COC(N)=O)C3=C(C(=O)C(C)=C(N)C3=O)N1C[C@@H]1N[C@@H]12 [Mitomycin C]
Auto MN % (micronuclei frequency, automated method of this invention): 3.3% | Manual MN % (micronuclei frequency, number of micronuclei divided by number of binucleated cells, manual scoring): 3% | Auto MN % (micronuclei frequency, automated method of this invention) (0.05 mcg/ml, 24 hours, Cytochalasin B protocol, independent duplicate wells, automated scoring): 2.7% | Auto MN % (micronuclei frequency, automated method of this invention) (0.05 mcg/ml, 24 hours, Cytochalasin B protocol, independent duplicate wells, automated scoring, listed as mitomycin C): 3.3% | Manual MN % (micronuclei frequency, number of micronuclei divided by number of binucleated cells, manual scoring) (0.05 mcg/ml, 24 hours, Cytochalasin B protocol, independent duplicate wells, manual scoring): 3% and 3.8%

Several values for one entry are separate records, joined by “and”; a condition that tells them apart may be missing. Equal values may be shown once. Read-outs that look alike come from different tables or passages of the source.
